This is an account of results in ChEMBL document CHEMBL1148829, “Cinnamoyl derivatives of 7alpha-aminomethyl-6,14-endo-ethanotetrahydrothebaine and 7alpha-aminomethyl-6,14-endo-ethanotetrahydrooripavine and related opioid ligands” (2007).

For test [1], the species on record is Mus musculus. The test can be described thus: Antinociceptive activity in mouse by hot plate assay. For orientation: Hot-plate and tail-flick tests time the reaction to a heat stimulus.
The species entered for test [2] is Mus musculus. In words: Antinociceptive activity in mouse by tail flick assay.
Test [3] is filed under the species Mus musculus. In words: Antinociceptive activity in mouse by phenylquinone writhing assay. (In general: Writhing tests count abdominal constrictions after an irritant is injected.)

In general, ED50 refers to the dose at which the effect has come halfway, by size or by number of responders. Lower therefore signals an effect at a small dose.

For the compound `CO[C@@]12CC[C@@]3(C[C@@H]1[C@](C)(O)C(C)(C)C)[C@H]1Cc4ccc(O)c5c4[C@@]3(CCN1CC1CC1)[C@H]2O5`, the results for the ED50 in the test filed under Mus musculus [1], in the test listed under Mus musculus [2] and in the test filed under Mus musculus [3] were 0.035 mg/kg, 0.4 mg/kg and 0.016 mg/kg, respectively.
